Sequences of proteins named here, by UniProt entry; tags and fusion partners are left off. Residues count along the entry.
UniProt P28335, 33-458 V354A: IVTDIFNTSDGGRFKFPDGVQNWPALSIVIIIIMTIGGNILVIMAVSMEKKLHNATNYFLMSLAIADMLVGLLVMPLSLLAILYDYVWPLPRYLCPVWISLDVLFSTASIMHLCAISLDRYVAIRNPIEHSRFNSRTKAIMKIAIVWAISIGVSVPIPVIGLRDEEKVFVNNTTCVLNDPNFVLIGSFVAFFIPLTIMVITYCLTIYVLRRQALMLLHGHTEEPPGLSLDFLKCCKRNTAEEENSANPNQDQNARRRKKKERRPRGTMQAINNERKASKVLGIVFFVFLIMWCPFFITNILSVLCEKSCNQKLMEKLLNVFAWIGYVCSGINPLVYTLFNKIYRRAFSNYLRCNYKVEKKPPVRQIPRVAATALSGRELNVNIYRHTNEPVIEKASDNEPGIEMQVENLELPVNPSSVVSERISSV
UniProt P28335, 33-458 V354F: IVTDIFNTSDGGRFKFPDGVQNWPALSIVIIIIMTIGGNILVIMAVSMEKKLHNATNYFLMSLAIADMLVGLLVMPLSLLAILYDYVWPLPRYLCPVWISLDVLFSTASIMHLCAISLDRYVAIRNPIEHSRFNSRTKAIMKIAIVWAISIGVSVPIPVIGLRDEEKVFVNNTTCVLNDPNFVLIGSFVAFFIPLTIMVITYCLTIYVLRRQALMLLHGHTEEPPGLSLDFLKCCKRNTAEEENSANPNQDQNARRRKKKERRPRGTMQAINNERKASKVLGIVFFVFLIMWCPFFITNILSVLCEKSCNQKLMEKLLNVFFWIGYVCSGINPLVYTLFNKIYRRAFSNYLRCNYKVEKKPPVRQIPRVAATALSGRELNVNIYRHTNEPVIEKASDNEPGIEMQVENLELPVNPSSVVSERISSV
UniProt P41595, whole entry: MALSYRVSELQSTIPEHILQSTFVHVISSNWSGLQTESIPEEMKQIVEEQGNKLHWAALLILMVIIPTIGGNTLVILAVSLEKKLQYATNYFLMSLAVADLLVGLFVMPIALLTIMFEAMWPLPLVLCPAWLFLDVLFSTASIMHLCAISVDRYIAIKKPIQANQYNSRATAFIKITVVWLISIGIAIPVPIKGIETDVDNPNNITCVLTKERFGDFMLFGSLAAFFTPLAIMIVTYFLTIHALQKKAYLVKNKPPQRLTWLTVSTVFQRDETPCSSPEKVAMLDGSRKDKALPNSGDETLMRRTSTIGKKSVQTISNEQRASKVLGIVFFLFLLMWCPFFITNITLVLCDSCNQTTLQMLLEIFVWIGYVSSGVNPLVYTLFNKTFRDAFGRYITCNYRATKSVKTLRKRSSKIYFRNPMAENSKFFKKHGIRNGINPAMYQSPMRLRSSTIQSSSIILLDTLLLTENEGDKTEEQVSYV

In article PMC7047268 (ACS Central Science, 2020):

Assays:
[1] = molecular target: human 5-HT2C and its mutants (Homo sapiens, UniProt P28335, V354A); assay: Tango β-arrestin2 recruitment assay, HTLA cells; format: cell-based; settings: read-out: β-arrestin recruitment EC50
[2] = molecular target: wild-type or mutant 5-HT2C (Homo sapiens, UniProt P28335, V354A); assay: Gq calcium flux assay, transfected T-rex 293 cells; format: cell-based; settings: read-out: Gq activity EC50
[3] = molecular target: wild-type or mutant 5-HT2C (Homo sapiens, UniProt P28335, V354F); assay: Gq calcium flux assay, transfected T-rex 293 cells; format: cell-based; settings: read-out: Gq activity EC50
5-HT2B = 5-HT2B (Homo sapiens, UniProt P41595); settings: read-out: IC50, antagonism of 5-HT2B

(R)-asimilobine [Compound 1857]
EC50 [1]: 2300 nM
EC50 [2]: 6.4 nM
EC50 [3]: 54 nM
IC50 (5-HT2B): > 10000 nM
